Columns and labels:
Assay type in all cases: cell-based
[1] = tested on: Du145; assay: in vitro cytotoxicity assay, Du145; settings: Du145 human cancer cell line
Description: (§1) IR spectra were measured on a Bruker EQUINOX 55/S FT-IR/NIR spectrophotometer (Ettlingen, DE). Optical rotations were determined on a Perkin-Elmer 241 instrument at the sodium D line (589 nm). High-resolution mass spectrometry (HRMS) analyses were acquired on an IonSpec HiRes MALDI FT mass spectrometer (Lake Forest, Calif.) for HRMALDIMS or on an Agilent 1100 series LC/MSD Trap SL for HRESIMS (Santa Clara, Calif.). NMR data were recorded on a Varian Unity Inova 400 or 500 MHz NMR spectrometer (Varian, Inc., Palo Alto, Calif.). ^1H and ^13C NMR chemical shifts were referenced to residual solvent signals: δH 7.26 ppm and […] for CDCl3. ^1H-^1H COSY, HMQC, HMBC, HETLOC, gHSQMBC, and gDQCOSY were performed using either standard Varian pulse sequences or literature pulse sequences (Uhrin et al., 1998; Williamson et al., 2000). High-performance liquid chromatography (HPLC) analysis was carried out on a Varian HPLC system equipped with ProStar 210 pumps and a photodiode detector. Mobile phases used were buffer A (H2O) and buffer B (CH3CN). Analytical and semipreparative HPLC columns used were Alltech Alltima C18 columns, 250×4.6 mm, 5 μm and 250×10 mm, 5 respectively. Cytotoxity assays and PP inhibition assays for TTN and related analogues were performed as previously described for compound TTM and related congeners (Ju et al., 2009). […]

[2] = tested on: MCF7; assay: in vitro cytotoxicity assay, MCF7; settings: MCF7 human cancer cell line
Description: as §1

[3] = tested on: HCT-115; assay: in vitro cytotoxicity assay, HCT-115; settings: HCT-115 human cancer cell line
Description: as §1

Tautomycetin [TTN (1), reference compound]
IC50 [1]: 5.2 ± 0.4 µM
IC50 [2]: 8.9 ± 0.9 µM
IC50 [3]: 6.8 ± 0.6 µM

Source: US8580977B2 (priority 2010, dated 2013)
